In PubChem BioAssay (NCI):
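Tested at 5 concentrations; 48 h exposure; 96-well plates; endpoints linearly interpolated, else capped at highest concentration. Abbreviation: GI50, concentration required for 50% inhibition of growth. TGI marks complete inhibition of growth.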

Assays:
Assay in all cases: NCI anticancer screen, dose series, 48 h
[1] = system: UACC-62 melanoma
[2] = system: SNB-75 CNS
[3] = system: NCI-H23 lung
[4] = system: NCI-H226 lung
[5] = system: MCF7 breast
[6] = system: UACC-257 melanoma
[7] = system: OVCAR-8 ovarian
[8] = system: SF-295 CNS
[9] = system: ACHN renal
[10] = system: NCI-H460 lung
[11] = system: T-47D breast
[12] = system: NCI/ADR-RES ovarian
[13] = system: SF-539 CNS
[14] = system: PC-3 prostate
[15] = system: HT29 colon
[16] = system: HCC-2998 colon
[17] = system: SF-268 CNS
[18] = system: HOP-62 NSCLC
[19] = system: 786-0 renal
[20] = system: MDA-MB-231 breast
[21] = system: HCT-116 colon
[22] = system: KM12 colon
[23] = system: IGROV1 ovarian
[24] = system: CAKI-1 renal
[25] = system: SN12C renal
[26] = system: M14 melanoma
[27] = system: EKVX NSCLC
[28] = system: OVCAR-5 ovarian
[29] = system: BT-549 breast
[30] = system: COLO 205 colon
[31] = system: SK-MEL-28 melanoma
[32] = system: MDA-N
[33] = system: MALME-3M melanoma
[34] = system: SK-MEL-5 melanoma
[35] = system: MDA-MB-435
[36] = system: MOLT-4 leukemia
[37] = system: NCI-H522 lung
[38] = system: HCT-15 colon
[39] = system: CCRF-CEM leukemia
[40] = system: SNB-19 CNS
[41] = system: LOX IMVI melanoma
[42] = system: UO-31 renal
[43] = system: SK-MEL-2 melanoma
[44] = system: K-562 leukemia
[45] = system: HL-60(TB) leukemia
[46] = system: U251 CNS
[47] = system: RPMI-8226 leukemia
[48] = system: TK-10 renal
[49] = system: A498 renal
[50] = system: SR leukemia
[51] = system: SW-620 colon
[52] = system: NCI-H322M lung
[53] = system: OVCAR-3 ovarian
[54] = system: A549 NSCLC
[55] = system: HS 578T breast
[56] = system: SK-OV-3 ovarian
[57] = system: RXF 393 renal
[58] = system: OVCAR-4 ovarian
[59] = system: DU-145 prostate
[60] = system: HOP-92 NSCLC

## Cn1c(=O)c([N+](=O)[O-])c(N=[N+]=[N-])c2ccccc21
[1]
  GI50: 1.72 µM
  TGI: 3.37 µM
[2]
  GI50: 20.2 µM
  TGI: 38.2 µM
[3]
  GI50: 1910 nM
  TGI: 4.11 µM
[4]
  GI50: 12.8 µM
  TGI: 32.6 µM
[5]
  GI50: 1880 nM
  TGI: 4.56 µM
[6]
  GI50: 1.64 µM
  TGI: 3.45 µM
[7]
  GI50: 2380 nM
  TGI: 5.72 µM
[8]
  GI50: 17.6 µM
  TGI: 32.7 µM
[9]
  GI50: 1870 nM
  TGI: 3.29 µM
[10]
  GI50: 10.8 µM
  TGI: 27.3 µM
[11]
  GI50: 2080 nM
  TGI: 4.77 µM
[12]
  GI50: 8.68 µM
  TGI: 35.8 µM
[13]
  GI50: 3.24 µM
  TGI: 9.82 µM
[14]
  GI50: 2520 nM
  TGI: 7.5 µM
[15]
  GI50: 1.74 µM
  TGI: 3.82 µM
[16]
  GI50: 2.31 µM
  TGI: 6.22 µM
[17]
  GI50: 3.8 µM
  TGI: 15.4 µM
[18]
  GI50: 5.51 µM
  TGI: 11.1 µM
[19]
  GI50: 1.65 µM
  TGI: 3.06 µM
[20]
  GI50: 2130 nM
  TGI: 4.09 µM
[21]
  GI50: 1.68 µM
  TGI: 3.05 µM
[22]
  GI50: 5.98 µM
  TGI: 18.8 µM
[23]
  GI50: 1.87 µM
  TGI: 3.54 µM
[24]
  GI50: 0.933 µM
  TGI: 2260 nM
[25]
  GI50: 3.61 µM
  TGI: 12.7 µM
[26]
  GI50: 1.53 µM
  TGI: 3.12 µM
[27]
  GI50: 2.33 µM
  TGI: 5.09 µM
[28]
  GI50: 11.6 µM
  TGI: 24 µM
[29]
  GI50: 1940 nM
  TGI: 3.8 µM
[30]
  GI50: 1.67 µM
  TGI: 3.34 µM
[31]
  GI50: 1.2 µM
  TGI: 2.49 µM
[32]
  GI50: 1.9 µM
  TGI: 3.8 µM
[33]
  GI50: 1.43 µM
  TGI: 2810 nM
[34]
  GI50: 2.24 µM
  TGI: 5.29 µM
[35]
  GI50: 1.94 µM
  TGI: 4.43 µM
[36]
  GI50: 0.695 µM
  TGI: 2440 nM
[37]
  GI50: 496 nM
  TGI: 936 nM
[38]
  GI50: 1770 nM
  TGI: 3.37 µM
[39]
  GI50: 0.447 µM
  TGI: 1890 nM
[40]
  GI50: 17.2 µM
  TGI: 31.7 µM
[41]
  GI50: 1780 nM
  TGI: 3.28 µM
[42]
  GI50: 1.82 µM
  TGI: 3.23 µM
[43]
  GI50: 5.25 µM
  TGI: 17 µM
[44]
  GI50: 0.378 µM
  TGI: 2300 nM
[45]
  GI50: 0.326 µM
  TGI: 1800 nM
[46]
  GI50: 10.3 µM
  TGI: 23.1 µM
[47]
  GI50: 2.5 µM
  TGI: 6.33 µM
[48]
  GI50: 1860 nM
  TGI: 3.57 µM
[49]
  GI50: 20.6 µM
  TGI: 38.7 µM
[50]
  GI50: 2.19 µM
  TGI: 5.15 µM
[51]
  GI50: 1230 nM
  TGI: 2580 nM
[52]
  GI50: 17.1 µM
  TGI: 30.9 µM
[53]
  GI50: 1.78 µM
  TGI: 3.28 µM
[54]
  GI50: 7.78 µM
  TGI: 24.5 µM
[55]
  GI50: 2110 nM
  TGI: 5.13 µM
[56]
  GI50: 19.1 µM
  TGI: 33.2 µM
[57]
  GI50: 1750 nM
  TGI: 3.34 µM
[58]
  GI50: 3.13 µM
  TGI: 9.29 µM
[59]
  GI50: 13.3 µM
  TGI: 26.3 µM

## CN1CCCC(OC(=O)C(c2ccccc2)c2ccccc2)C1 (stereo not drawn)
[1]
  GI50: 56.1 µM
  TGI: > 100 µM
[2]
  GI50: > 100 µM
  TGI: > 100 µM
[3]
  GI50: > 100000 nM
  TGI: > 100 µM
[4]
  GI50: 23 µM
  TGI: > 100 µM
[5]
  GI50: > 100000 nM
  TGI: > 100 µM
[6]
  GI50: 21.7 µM
  TGI: 47.1 µM
[7]
  GI50: > 100000 nM
  TGI: > 100 µM
[8]
  GI50: > 100 µM
  TGI: > 100 µM
[9]
  GI50: > 100000 nM
  TGI: > 100 µM
[10]
  GI50: > 100 µM
  TGI: > 100 µM
[11]
  GI50: > 100000 nM
  TGI: > 100 µM
[12]
  GI50: > 100 µM
  TGI: > 100 µM
[13]
  GI50: > 100 µM
  TGI: > 100 µM
[14]
  GI50: > 100000 nM
  TGI: > 100 µM
[15]
  GI50: 30.2 µM
  TGI: > 100 µM
[16]
  GI50: 23 µM
  TGI: 47.6 µM
[17]
  GI50: > 100 µM
  TGI: > 100 µM
[18]
  GI50: > 100 µM
  TGI: > 100 µM
[19]
  GI50: 80.8 µM
  TGI: > 100 µM
[20]
  GI50: > 100000 nM
  TGI: > 100 µM
[21]
  GI50: 81.3 µM
  TGI: > 100 µM
[22]
  GI50: > 100 µM
  TGI: > 100 µM
[23]
  GI50: 71.5 µM
  TGI: > 100 µM
[24]
  GI50: 89.6 µM
  TGI: > 100000 nM
[25]
  GI50: > 100 µM
  TGI: > 100 µM
[26]
  GI50: 16.6 µM
  TGI: 31.1 µM
[27]
  GI50: 52 µM
  TGI: > 100 µM
[28]
  GI50: > 100 µM
  TGI: > 100 µM
[29]
  GI50: > 100000 nM
  TGI: > 100 µM
[30]
  GI50: 36.1 µM
  TGI: > 100 µM
[31]
  GI50: 25.6 µM
  TGI: 54.4 µM
[32]
  GI50: 71.7 µM
  TGI: > 100 µM
[33]
  GI50: 48.2 µM
  TGI: > 100000 nM
[34]
  GI50: 31.1 µM
  TGI: > 100 µM
[35]
  GI50: 83.6 µM
  TGI: > 100 µM
[36]
  GI50: 32.7 µM
  TGI: > 100000 nM
[37]
  GI50: > 100000 nM
  TGI: > 100000 nM
[38]
  GI50: > 100000 nM
  TGI: > 100 µM
[39]
  GI50: 74.1 µM
  TGI: > 100000 nM
[40]
  GI50: > 100 µM
  TGI: > 100 µM
[41]
  GI50: > 100000 nM
  TGI: > 100 µM
[42]
  GI50: 44.2 µM
  TGI: > 100 µM
[43]
  GI50: 91.7 µM
  TGI: > 100 µM
[44]
  GI50: 33.3 µM
  TGI: > 100000 nM
[45]
  GI50: 25.1 µM
  TGI: > 100000 nM
[46]
  GI50: > 100 µM
  TGI: > 100 µM
[47]
  GI50: 29.4 µM
  TGI: 95.5 µM
[48]
  GI50: > 100000 nM
  TGI: > 100 µM
[49]
  GI50: 54.4 µM
  TGI: > 100 µM
[50]
  GI50: 35 µM
  TGI: > 100 µM
[51]
  GI50: > 100000 nM
  TGI: > 100000 nM
[52]
  GI50: > 100 µM
  TGI: > 100 µM
[53]
  GI50: 39.8 µM
  TGI: > 100 µM
[60]
  GI50: 39.8 µM
  TGI: > 100 µM
[54]
  GI50: > 100 µM
  TGI: > 100 µM
[55]
  GI50: > 100000 nM
  TGI: > 100 µM
[56]
  GI50: > 100 µM
  TGI: > 100 µM
[57]
  GI50: > 100000 nM
  TGI: > 100 µM
[58]
  GI50: > 100 µM
  TGI: > 100 µM
[59]
  GI50: > 100 µM
  TGI: > 100 µM
